Read-outs that look alike come from different tables or passages of the source.
Legend:
hLXRα = hLXRα (Homo sapiens, UniProt Q13133); assay: luciferase assay with GAL-4 chimeric hLXRα receptor in human embryonic kidney 293 cells; format: cell-based; details: HEK293, 24 h, read-out: LXRα Efficacy (%) ± SD
Procedure: (§1) All the synthesized compounds were first tested for their ability to activate LXRs by using luciferase assays with GAL-4 chimeric receptors. These were performed by co-transfecting plasmids encoding hLXRα- and β-binding domains fused to GAL-4, with the respective responsive element conjugated with the luciferase reporter gene into the human embryonic kidney 293 cells.
(§2) Cell Culture and Co-transfection Assays. Human embryonic Kidney 293 cells (American Type Culture Collection) were cultured in Dulbecco's Modified Eagle's medium containing 10% of fetal bovine serum at 37° C. in humidified atmosphere of 5% CO2. HEK293 cells (4×10^4 cells per well) were transiently transfected in 48 well plate with the reporter plasmids pMH100X4-TK-luc (100 ng/well), Renilla (22 ng/well) together with 100 ng/well of pCMX-Gal4-RXR, pCMX-Gal4-PPAR-γ, pCMX-Gal4-PXR, pFA-CMV-FXR pCMX-Gal4-LXR-α or pCMX-Gal4-LXR-β plasmids using X-tremeGENE 9 DNA Transfection Reagent (Roche). Six hours after transfection, the cells were treated with the appropriate compound for 24 hours. Luciferase activities were analyzed by luciferase Dual Reporter Assay Systems (Promega) according to the manufacturer's protocol. GAL4-LXRs, GAL4-PPAR-γ, GAL4-RXR and TK-MHC100-luc plasmids were described in Villablanca et al.49 GAL4-PXR was a kind gift of Dr. Enrique Sainz (The Scripps Research Institute, La Jolla, USA). GAL4-FXR was a kind gift of Dr. Daniel Merk (Goethe-University Frankfurt am Main). The results obtained by luciferase assays and reported in Table 1 are from three to five independent experiments.
(§3) Statistical analysis. Data are expressed as mean±SEM and were analyzed for significance by ANOVA with Dunnet's multiple comparison tests. The analysis was performed with Prism software. Data in Table 1 are expressed as EC50±SD. In particular, the standard deviations were obtained by calculating the mean of the EC50 of each experiment (three to five independent experiments). The efficacy (%) of the compounds was calculated as the percentage of the compound effect, in terms of LXRα or β activation, versus 8 μM of 22R—HC±SD. […]

Protein sequences, listed by entry. Tags and fused reporters are not part of them. Residues count along the entry.
UniProt Q13133, 209-447 limits assumed: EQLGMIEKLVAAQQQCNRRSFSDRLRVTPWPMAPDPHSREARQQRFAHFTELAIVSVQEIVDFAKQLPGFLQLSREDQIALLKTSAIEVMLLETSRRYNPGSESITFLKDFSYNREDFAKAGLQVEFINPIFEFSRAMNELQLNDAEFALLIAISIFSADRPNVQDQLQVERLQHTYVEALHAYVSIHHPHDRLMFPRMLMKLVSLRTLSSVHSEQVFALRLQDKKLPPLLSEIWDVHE
UniProt P55055, 222-460 limits assumed: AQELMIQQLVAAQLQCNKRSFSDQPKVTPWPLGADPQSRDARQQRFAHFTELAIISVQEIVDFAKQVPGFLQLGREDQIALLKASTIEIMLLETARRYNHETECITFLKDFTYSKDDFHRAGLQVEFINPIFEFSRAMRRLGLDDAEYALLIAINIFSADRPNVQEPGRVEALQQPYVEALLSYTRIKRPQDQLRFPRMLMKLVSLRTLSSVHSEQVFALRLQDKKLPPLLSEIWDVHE

hLXRβ = hLXRβ (Homo sapiens, UniProt P55055); assay: luciferase assay with GAL-4 chimeric hLXRβ receptor in human embryonic kidney 293 cells; format: cell-based; details: HEK293, 24 h
Procedure: as §1, §2, §3

[1] = % of compound effect versus 8 μM of 22R-HC
[2] = % of compound effect versus 8 μM of 22R-HC, read-out: LXRβ Efficacy (%) ± SD

`CC(C)[C@@H](C)C[C@H](O)[C@@H](C)[C@H]1CC[C@H]2C3=CC=C4C[C@@H](O)CC[C@]4(C)[C@H]3CC[C@]12C` [Compound 22, (22S)-3β-Ergost-5,7-diene-3,22-diol] showed an Emax (hLXRα; [1]) of 74.7 ± 11.1% and an Emax (hLXRβ; [2]) of 41.9 ± 19.2%.
For `CC[C@@H](C(C)C)[C@H](O)C[C@@H](C)[C@H]1CC[C@H]2[C@@H]3CC=C4C[C@@H](O)CC[C@]4(C)[C@H]3CC[C@]12C` [Compound 19, (23R)-3β-Stigmast-5-ene-3,23-diol], the Emax (hLXRα; [1]) was 489 ± 70.1% and the Emax (hLXRβ; [2]) was 115 ± 2.8%.
With `CC[C@H](C[C@@H](O)[C@@H](C)[C@H]1CC[C@H]2[C@@H]3CC=C4C[C@@H](O)CC[C@]4(C)[C@H]3CC[C@]12C)C(C)C` [Compound 20, (22R)-3β-stigmast-5-ene-3,22-diol] the Emax (hLXRα) was 208 ± 69.3% and the Emax (hLXRβ; read-out: LXRβ Efficacy (%) ± SD, % of compound effect versus 8 μM of 22R-HC) was 90.8 ± 13.2%.
